Our source for the IC50 values is patent US12616761B2, “CXCR4-targeting compounds” (PROVINCIAL HEALTH SERVICES AUTHORITY, priority 2020, dated 2026).

By UniProt entry, the sequences of proteins in these tests, tags left out.
UniProt P61073, whole entry: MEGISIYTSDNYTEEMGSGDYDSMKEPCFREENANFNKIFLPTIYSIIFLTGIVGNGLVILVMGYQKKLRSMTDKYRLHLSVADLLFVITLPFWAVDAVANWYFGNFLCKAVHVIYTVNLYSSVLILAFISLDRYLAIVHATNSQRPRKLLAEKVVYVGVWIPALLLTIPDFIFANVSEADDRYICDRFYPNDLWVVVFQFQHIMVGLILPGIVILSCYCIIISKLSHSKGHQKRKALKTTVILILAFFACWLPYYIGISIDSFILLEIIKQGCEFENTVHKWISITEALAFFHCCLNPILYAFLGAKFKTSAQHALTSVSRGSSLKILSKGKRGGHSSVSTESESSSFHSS

This test deals with T1, CXCR4 (Homo sapiens, UniProt P61073).
T1 construct: expressed in transfected cells; host or cells: CHO:CXCR4 cells (gift from Drs. David McDermott and Xiaoyuan Chen, NIH)
The test can be described thus: Competitive binding assay: [125I]SDF-1α displacement on CHO:CXCR4 cells. Particulars: read-out: IC50 (nM), Binding Affinity to CXCR4; [125I]SDF-1α competition on CHO:CXCR4 cells; given as ranges. On the procedure: The Z138 mantle cell lymphoma cell line was given by Dr. Christian Steidl (BC Cancer) as a gift. The CHO:CXCR4 cell line was given by Drs. David McDermott and Xiaoyuan Chen (National Institutes of Health) as a gift. The cell line was cultured in a 5% CO2 atmosphere at 37° C. in a humidified incubator. The Z138 cells were incubated with IMDM medium (Life Technologies Corporations) and the CHO:CXCR4 cells were incubated with F12K medium (Life Technologies Corporations), both of which were supplemented with 10% fetal bovine serum (Sigma-Aldrich), 100 I.U./mL penicillin, and 100 μg/mL streptomycin (Penicillin-Streptomycin Solution).
CHO:CXCR4 cells were seeded at a density of 1×10^5 cells/well in 24-well poly-D-lysine coated plates (Corning BioCoat) and incubated with [^1251]SDF-1α (0.01 nM, PerkinElmer) and competing nonradioactive ligands ([…]). The cells, radioligand, and competing peptides were incubated for 1 h at 27° C. with moderate shaking. Following the incubation period, the supernatant was aspirated, followed by three washes with 1 mL of ice-cold PBS. Cells were harvested with 200 μL of trypsin and counted on a y counter. Data were plotted in GraphPad Prism 7 to determine IC50 values (GraphPad Software, Inc., La Jolla, CA). The values are reported as mean±standard deviation.
A word on the IC50: it is the midpoint of a concentration-inhibition curve. With “cyclo[Phe-Tyr-Lys(iPr)-D-Arg-2Nal-His-D-Glu]-Lys(iPr)”, the IC50 fell in the range of 10 to 50 nM.

For “cyclo[Phe-Tyr-Lys(iPr)-D-Arg-2Nal-D-His-D-Glu]-Lys(iPr)”, the IC50 is 1 to 10 nM.

In the case of “cyclo[Phe-(4-NH2)Phe-Lys(iPr)-D-Arg-2-Nal-D-Ala-D-Glu]-Lys(iPr)”, the IC50 lay in the range of 10 to 50 nM.

For the substance “cyclo[Phe-(3-1)Tyr-Lys(iPr)-D-Arg-2-Nal-Gly-D-Glu]-Lys(iPr)”, the IC50 was in the range of 10 to 50 nM.

For the substance “cyclo[Phe-hTyr-Lys(iPr)-D-Arg-2-Nal-Gly-D-Glu]-Lys(iPr)”, the IC50 is 1 to 10 nM.

“cyclo[Phe-Tyr-Lys(iPr)-D-Arg-2Nal-D-Gln-D-Gu]-Lys(iPr)”: the IC50 fell in the range of 1 to 10 nM.

With “cyclo[Phe-Tyr-Lys(iPr)-DArg-(4-NH2)Phe-D-Ala-D-Glu]-Lys(iPr)”, the concentration for half-maximal inhibition (IC50) was 10 to 50 nM.

As for “cyclo[Phe-(4-NO2)Phe-Lys(iPr)-D-Arg-2-Nal-Gly-D-Glu]-Lys(iPr)”, the IC50 is 10 to 50 nM.

In the case of “cyclo[Phe-Tyr-Lys(iPr)-D-Arg-2Nal-D-Glu-D-Glu]-Lys(iPr)”, the IC50 was 10 to 50 nM.

For “cyclo[Phe-Tyr-Lys(iPr)-D-Arg-2Nal-D-Ala-D-Glu]-Lys(iPr)”, the IC50 lay within 1 to 10 nM.

As for “cyclo[Phe-Tyr-Lys(iPr)-D-Arg-2Nal-D-Dab-D-Glu]-Lys(iPr)”, the IC50 was 1 to 10 nM.

For “cyclo[Phe-Tyr-Lys(iPr)-D-Arg-2Nal-D-Asn-D-Glu]-Lys(iPr)”, the IC50 was in the range of 1 to 10 nM.

As for “cyclo[Phe-Tyr-Lys(iPr)-D-Arg-2Nal-D-Ser-D-Glu]-Lys(iPr)”, the IC50 lay in the range of 1 to 10 nM.

On to “cyclo[Phe-(4-NH2)Phe-Lys(iPr)-D-Arg-2-Nal-Gly-D-Glu]-Lys(iPr)”, for which the IC50 was in the range of 1 to 10 nM.

Regarding “cyclo[Phe-Tyr-Arg(Me)-D-Arg-2Nal-D-Ala-D-Glu]-Lys(iPr)”, the IC50 was in the range of 1 to 10 nM.
